# Yeast mating assay 1: variants of the scFv Ab-14

The measurements come from Engelhart et al. 2022 (doi:10.1038/s41597-022-01779-4) through the FLAb antibody collection.

Antigen: PDVDLGDISGINAS, a 14-residue peptide of the SARS-CoV-2 spike HR2 region.

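The parent was found by panning a naive human phage display library on the peptide. In library AAYL50, one, two or three CDR residues were substituted; doubles and triples were drawn at random. AlphaSeq pools MATa yeast showing the antibodies with MATalpha yeast showing the peptide. Pairs that bind mate more often; barcode pairs of the diploids are counted by sequencing. Scores were corrected for input abundance and mapped to Kd with protein pairs of known affinity run in the same pool. Mating was done three times.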

Parent scFv Ab-14: VH joined to VL by a 15-residue (Gly4Ser)3 linker. Changes lie in the light chain CDRs alone.
VH: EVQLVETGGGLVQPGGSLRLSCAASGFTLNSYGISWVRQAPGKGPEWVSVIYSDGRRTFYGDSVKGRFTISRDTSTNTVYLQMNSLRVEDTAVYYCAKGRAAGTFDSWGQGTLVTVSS
VL: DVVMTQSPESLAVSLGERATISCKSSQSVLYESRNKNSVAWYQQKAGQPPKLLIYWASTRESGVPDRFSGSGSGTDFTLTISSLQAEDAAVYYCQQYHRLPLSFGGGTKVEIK

The parent's light chain CDRs are KSSQSVLYESRNKNSVA, WASTRES, QQYHRLPLS; each variant's own CDRs replace them letter for letter. Numbers give log10(Kd / nM), so 0 is 1 nM and 3 is 1 µM. Smaller is tighter. A mean of the replicates is given; it leaves out those without a signal. An entry "nd" has no value in the source: the pair was not observed among the diploids in that replicate. This suggests poor binding but is not conclusive. Empty control strains, which show no peptide, gave a signal in 18% of pairings with library AAYL50; the median was 4.19 and 95% of these signals were weaker than 2.99. No background was subtracted. For each scFv, signals with the empty controls are counted beside the result, with their mean in brackets.

CDR-L1	CDR-L2	CDR-L3	log10 Kd (nM) by replicate	mean log10 Kd (nM)	control signals
KSSQSVLYEIRNKNSVC	WASTRES	QDYHRLPLS	nd / nd / nd	nd	0/9
KSSQSVLYESRNKNSVY	WASTRES	QGYHRLYLS	nd / nd / nd	nd	1/9 (3.29)
KSSQSVLYESHNKNSVA	WASTDES	QQYHRVPLS	nd / nd / 4.93	4.93	3/9 (4.20)
KHSQSVPYESRNKNSVD	WASTRES	QQYHRLPLS	nd / nd / nd	nd	2/9 (3.16)
KSSQSVLYESRNKNSAA	WASTRES	QQYWRLPLS	5.07 / 5.38 / 4.32	4.93	6/9 (4.23)
KSSQSVLYESRNKNSMA	WASTIES	QQYHRLPLS	4.02 / 3.20 / 4.03	3.75	5/9 (4.63)
KSSQSVLYEIRNYNSVA	WASTRWS	QQYHRLPLS	5.38 / 3.91 / 4.16	4.49	7/9 (4.45)
KSSQSVEYVSRNKNSVA	WASTRES	QQQHRLPLS	nd / nd / nd	nd	0/9
KSSQSVLCESRNKNSVA	WASTRES	QQKHRLHLS	nd / nd / nd	nd	0/9
KVSQSVLYESRNKNSVA	WASTRES	DQYHRLPLS	3.28 / 3.46 / 2.68	3.14	4/9 (4.55)
KSSQSVVYESRNKNSVA	WASTRES	QKYHRLWLS	nd / nd / nd	nd	1/9 (3.63)
KSSQSVLYESKNKNQVA	WNSTRES	QQYHRLPLS	3.04 / nd / nd	3.04	0/9
KSSQSLKYESRNKNSVA	WASTRES	QQYHRMPLS	0.92 / 1.09 / 1.01	1.01	2/9 (4.73)
KSSQSYLYESRYKNSVA	WASTRES	QQYHGLPLS	3.83 / 4.51 / 3.80	4.05	2/9 (3.32)
KSSQSVLYESRNTNSFA	WKSTRES	QQYHRLPLS	5.17 / 3.77 / 4.28	4.41	4/9 (4.54)
KSSQSVLYESRNKVSVA	WASTREM	QQYHELPLS	nd / nd / nd	nd	1/9 (3.08)
KSSQSVDYESRNKNSVS	WADTRES	QQYHRLPLS	3.30 / nd / 4.39	3.84	1/9 (4.36)
KSSGSVLYESRNKNSVA	WASTRES	QQYHRLPLS	0.19 / 0.32 / 0.42	0.31	0/9
KSSQSVLYESRNKSSVA	WNSTRES	QQYHRLPLS	nd / 4.88 / 5.92	5.40	3/9 (4.04)
KSRQSVLYESRNINSVA	WASTRES	QQYHRRPLS	2.85 / 3.20 / 3.95	3.34	3/9 (4.36)
PSSQSVLYESRNKNSVA	WASTRES	QQYFRYPLS	nd / nd / nd	nd	0/9
KSSQSVLYESRNKNSVA	WASTRES	RRYHRLPLS	1.53 / 1.70 / 1.85	1.69	3/9 (4.21)
KSSQSVLYEERNKNSVA	IASTRES	QCYHRLPLS	nd / 5.30 / nd	5.30	2/9 (4.77)
KSSQSVLYESRNFHSVS	WASTRES	QQYHRLPLS	5.77 / nd / nd	5.77	1/9 (3.35)
KSSQSVLYESRNKNSVA	WYSTRES	QQYHRRPLS	4.93 / nd / 3.54	4.23	2/9 (3.75)
KSSQSVLREFRNKNSVA	WASTREV	QQYHRLPLS	2.20 / 2.43 / 2.64	2.42	1/9 (2.70)
KSSQSVLYESRNTNSVA	WASTRES	QQYHFEPLS	nd / nd / 3.50	3.50	1/9 (3.10)
KSSQSVLYESRNKRSVA	WASTREQ	QQYHRLWLS	nd / 3.81 / nd	3.81	0/9
KSSSSVLYESRNKNSVA	WASTRES	WQYHWLPLS	nd / nd / nd	nd	1/9 (3.33)
KSSQSVLYESRNKNSVA	WASTQQS	QQYHRLPLS	nd / nd / nd	nd	0/9
KSSQSVLYESRNKNSVA	WASVTES	QQVHRLPLS	nd / nd / nd	nd	0/9
KSSQSPLYESRNKNSVA	WASTRES	QQMHRHPLS	1.55 / 1.41 / 1.45	1.47	1/9 (3.44)
KSSQSVLHESRNKNSVA	WASTQEV	QQYHRLPLS	2.50 / 2.15 / 2.81	2.49	1/9 (3.78)
KSSQSHLYESRNKNSVA	WASTRES	KQYHRLPMS	nd / 2.85 / nd	2.85	4/9 (3.79)
KSSQSVLYESKNKNSVA	WASTAES	QQYHRLPES	3.21 / 3.09 / 2.74	3.01	5/9 (3.96)
KSSQSVLYESRNKSDVA	WASTEES	QQYHRLPLS	nd / nd / nd	nd	1/9 (2.96)
KSSQSVLYPSRNKNSVE	WYSTRES	QQYHRLPLS	nd / nd / nd	nd	1/9 (4.11)
KSSQSVLYESRNKLSVA	WFSTRES	VQYHRLPLS	nd / nd / nd	nd	0/9
KSSQSVLYESRSKNSVA	WTMTRES	QQYHRLPLS	1.07 / 1.48 / 1.34	1.30	2/9 (3.76)
KSSQSVLYESRNKRSVA	WASGRES	QQYHRLPES	nd / nd / 3.72	3.72	1/9 (3.47)
KSSQSVLYEQANKNSVA	WASTRES	QQYHRLPLS	4.98 / 4.93 / nd	4.96	3/9 (4.79)
KSSQSVLYESRNKNSVA	WASTRES	QLYHRLPRY	nd / nd / nd	nd	0/9
KSSQSVLYESRNKNSVA	WASTWES	AQYHRLPLS	nd / nd / nd	nd	2/9 (4.58)
KSSQSVLYESPNLNSVA	WASTRES	QSYHRLPLS	1.96 / 1.95 / 1.76	1.89	0/9
KSSQSVLYESRNKNSIA	WASTRES	QQPHRLYLS	0.41 / 0.61 / 0.66	0.56	0/9
KSSQSYLYESRNKNSVS	WASTRES	QCYHRLPLS	nd / nd / nd	nd	0/9
KSSQSVLYESTNKDSVA	LASTRES	QQYHRLPLS	0.70 / 0.95 / 0.84	0.83	4/9 (4.97)
KSSQSVLYESRNKNEVA	SASTRES	QQEHRLPLS	2.25 / 2.18 / 2.82	2.42	2/9 (3.77)
VSSQSVPYESRNKNSVA	WASTRES	QQLHRLPLS	nd / nd / nd	nd	0/9
KSSQRVRYESRNKNSVA	WASTRES	QQYHRLWLS	2.27 / 2.41 / 2.18	2.29	0/9

The first 7 variants above that were never detected:

CDR-L1	CDR-L2	CDR-L3	log10 Kd (nM) by replicate	mean log10 Kd (nM)	control signals
KSSQSVLYEIRNKNSVC	WASTRES	QDYHRLPLS	nd / nd / nd	nd	0/9
KSSQSVLYESRNKNSVY	WASTRES	QGYHRLYLS	nd / nd / nd	nd	1/9 (3.29)
KHSQSVPYESRNKNSVD	WASTRES	QQYHRLPLS	nd / nd / nd	nd	2/9 (3.16)
KSSQSVEYVSRNKNSVA	WASTRES	QQQHRLPLS	nd / nd / nd	nd	0/9
KSSQSVLCESRNKNSVA	WASTRES	QQKHRLHLS	nd / nd / nd	nd	0/9
KSSQSVVYESRNKNSVA	WASTRES	QKYHRLWLS	nd / nd / nd	nd	1/9 (3.63)
KSSQSVLYESRNKVSVA	WASTREM	QQYHELPLS	nd / nd / nd	nd	1/9 (3.08)

For reference, the parent read 0.65 as the reference entry and 1.68 as a member of this library.